Laboratory results reported in PubChem BioAssay AID602472 (Sanford-Burnham Center for Chemical Genomics, 2012).
The entries are a selection whose mix differs from that of the whole data set. Active and inactive are the calls of the source. No stated cut-off is given here; in the data, active means inhibition above about 40%; inactive means the rest.

experiment: NF-kB reporter suppression in CF airway cells – cell-based, GFP fluorescence, single concentration, confirmation (AID 602472); details: KKLEB CF airway cells, PAF-induced NF-kB-GFP fluorescence, overnight; at 5 µM; hits give high values;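 further: stimulus PAF is a Pseudomonas aeruginosa filtrate and not platelet activating factor; plate controls were DMSO wells with stimulus for no effect and unstimulated DMSO wells for full effect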

| Compound | inhibition |
| --- | --- |
| CN(C)C(=O)c1cc([N+](=O)[O-])cc2c1-c1c(cc([N+](=O)[O-])cc1[N+](=O)[O-])C2=O | active: 58.9% |
| CSc1ccc(Nc2c([N+](=O)[O-])cc([N+](=O)[O-])cc2[N+](=O)[O-])cc1 | inactive: -58% |
